In patent US7098246B2, “Natural compounds and their derivatives for the prevention and treatment of cardiovascular, hepatic and renal diseases and for cosmetic applications” (Puleva Biotech, S.A., priority 2002, dated 2006):

Experiment: Absorption of hydroxytyrosol and derivatives administered orally in mice (hydroxytyrosol in plasma)
Details: oral, oily solution, equivalent amounts (10 mg II, 13 mg III, 70 mg IX)
Source text: Plasma was isolated from each blood sample by extraction with ethyl acetate and analysed by gas chromatography-mass spectometry.

2-(3,4-distearyloxyphenyl) ethyl stearate [IX]
Hydroxytyrosol in plasma, 15 min. (15 min): not detected
Hydroxytyrosol in plasma, 60 min. (60 min): 0.44 mg/L
